Measured values as given in PubChem BioAssay AID1423 (NMMLSC, 2008).
The entries are a selection whose mix differs from that of the whole data set. Some structures show a salt or complex split into parts, the way the source records it. Activity calls are given as the source filed them. Cut-off read from the data, not from the text of the source: active = response below about 60% or above about 140%; inactive = in between.

Protein sequences, listed by entry. Tags and fused reporters are not part of them.
UniProt P09471, whole entry: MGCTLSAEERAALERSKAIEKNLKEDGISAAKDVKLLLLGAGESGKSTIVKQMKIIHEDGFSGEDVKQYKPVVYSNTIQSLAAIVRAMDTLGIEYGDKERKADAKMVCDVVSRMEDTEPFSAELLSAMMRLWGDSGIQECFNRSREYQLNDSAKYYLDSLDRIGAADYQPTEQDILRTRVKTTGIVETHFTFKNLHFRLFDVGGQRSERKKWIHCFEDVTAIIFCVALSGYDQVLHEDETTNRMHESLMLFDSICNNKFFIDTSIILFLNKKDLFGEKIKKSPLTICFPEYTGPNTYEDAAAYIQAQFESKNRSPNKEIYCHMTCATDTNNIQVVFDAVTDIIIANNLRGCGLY

Each molecule was assayed against Guanine nucleotide-binding protein G(o) subunit alpha (Homo sapiens) (UniProt P09471) (assay: compounds changing RGS8 association with Galphao – biochemical, multiplexed bead flow cytometry, primary screen (AID 1423;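 note: Galphao activated as the GDP aluminium fluoride complex binding bead-coupled RGS8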)). Conditions: at 10 µM, actives lie on both sides.
For `O=C(O)c1cccc(Nc2c([N+](=O)[O-])cc([N+](=O)[O-])cc2[N+](=O)[O-])c1`, the response (percent of control binding) was inactive: 101%.
`CC1=NCCc2c1[nH]c1ccccc21.O=[N+]([O-])c1cc([N+](=O)[O-])c(O)c([N+](=O)[O-])c1` was tested, and the response (percent of control binding) was inactive: 105%.
With `COc1ccccc1OP(C)(=O)Nc1cccc(Br)c1` (configuration not stated) the response (percent of control binding) was inactive: 100%.
With `CCOC(=O)c1ccc(NP(C)(=O)Oc2cc(C)cc(C)c2)cc1` (configuration not stated) the response (percent of control binding) was inactive: 105%.
For `Cc1cc(C)cc(OP(C)(=O)Nc2ccc(C)cc2C)c1` (configuration not stated), the response (percent of control binding) was inactive: 101%.
`Cc1ccc(C)c(NP(C)(=O)Oc2ccccc2)c1` (configuration not stated) was tested, and the response (percent of control binding) was inactive: 85.9%.
`Cc1cc(C)cc(OP(C)(=O)Nc2ccccn2)c1` (configuration not stated) was tested, and the response (percent of control binding) was inactive: 104%.
In the case of `CP(=O)(Nc1cccc(Br)c1)Oc1ccccc1` (configuration not stated), the response (percent of control binding) is reported as inactive: 101%.
`O=[N+]([O-])c1cc([N+](=O)[O-])c(-n2nnc3ccccc32)c([N+](=O)[O-])c1` was tested, and the response (percent of control binding) was inactive: 74.4%.
With `Cc1nc2ccc3ccccc3c2s1.O=[N+]([O-])c1cc([N+](=O)[O-])c(O)c([N+](=O)[O-])c1` the response (percent of control binding) was inactive: 100%.
For `CCOC(=O)C(CC)C1=NC(C)(C)Cc2ccccc21.O=[N+]([O-])c1cc([N+](=O)[O-])c(O)c([N+](=O)[O-])c1` (configuration not stated), the response (percent of control binding) was inactive: 97.8%.
For `O=[N+]([O-])c1cc([N+](=O)[O-])c(Nc2nnnn2CCO)c([N+](=O)[O-])c1`, the response (percent of control binding) was inactive: 99.7%.
For `CN1CCCCC1COC(=O)C1(O)c2ccccc2CCc2ccccc21` (configuration not stated), the response (percent of control binding) was inactive: 102%.
For `COc1ccccc1OP(C)(=O)Nc1c(C)cccc1C` (configuration not stated), the response (percent of control binding) was inactive: 101%.
For `CCCOc1ccc(NP(C)(=O)Oc2ccc(Cl)cc2)cc1` (configuration not stated), the response (percent of control binding) was inactive: 101%.
`CP(=O)(Nc1ccc(SC(F)(F)F)cc1)Oc1ccccc1` (configuration not stated) was tested, and the response (percent of control binding) was inactive: 99.4%.
`CP(=S)(Nn1cnnc1)Oc1ccccc1` (configuration not stated) was tested, and the response (percent of control binding) was inactive: 119%.
With `CP(=O)(Nc1ccccc1Br)Oc1ccccc1` (configuration not stated) the response (percent of control binding) was inactive: 113%.
In the case of `COc1ccccc1OP(C)(=O)Nc1ccccc1` (configuration not stated), the response (percent of control binding) is reported as inactive: 104%.
With `CP(=O)(Oc1ccccc1)OC(c1ccccc1)C(F)(F)F` (configuration not stated) the response (percent of control binding) was inactive: 102%.
With `CP(=O)(Nc1ccc(SC(F)(F)F)cc1)Oc1ccc(Cl)cc1` (configuration not stated) the response (percent of control binding) was inactive: 100%.
`Cc1cccc(C)c1OP(C)(=O)Nc1ccc(SC(F)(F)F)cc1` (configuration not stated) was tested, and the response (percent of control binding) was inactive: 107%.
`Cc1cc(C)cc(OP(C)(=O)Nc2ccc(SC(F)(F)F)cc2)c1` (configuration not stated) was tested, and the response (percent of control binding) was inactive: 103%.
With `CP(=O)(NC(=O)Nc1ccccc1)Oc1ccccc1` (configuration not stated) the response (percent of control binding) was inactive: 98%.
`CCc1ccc(OP(C)(=O)N2CCN(c3ccc([N+](=O)[O-])cc3)CC2)cc1` (configuration not stated) was tested, and the response (percent of control binding) was inactive: 101%.
With `CCOC(=O)c1ccc(NP(C)(=O)Oc2ccc(OC)cc2)cc1` (configuration not stated) the response (percent of control binding) was inactive: 105%.
In the case of `CCOP(C)(=S)SCC(=O)NC(C)C(=O)O` (configuration not stated), the response (percent of control binding) is reported as inactive: 96.4%.
For `CP(=O)(Nc1ccccn1)Oc1ccc(Cl)cc1` (configuration not stated), the response (percent of control binding) was inactive: 99.9%.
For `CCN(CC)CCCOC(=O)C(O)(c1ccccc1)c1ccccc1`, the response (percent of control binding) was inactive: 103%.
`O=[N+]([O-])c1ccc2c(c1)C=Nc1ccccc1O2` was tested, and the response (percent of control binding) was inactive: 112%.
`Cc1cccc(C)c1OP(C)(N)=O` (configuration not stated) was tested, and the response (percent of control binding) was inactive: 105%.
`CC(C)(C)c1ccc(OP(C)(=O)Nc2ccc(SC(F)(F)F)cc2)cc1` (configuration not stated) was tested, and the response (percent of control binding) was inactive: 101%.
`Cc1ccc(NP(C)(=O)Oc2ccccc2)c(C)c1` (configuration not stated) was tested, and the response (percent of control binding) was inactive: 102%.
`COc1ccccc1OP(C)(=O)Nc1ccc(C)cc1` (configuration not stated) was tested, and the response (percent of control binding) was inactive: 92.7%.
With `CCOC(=O)c1ccc(NP(C)(=O)Oc2ccccc2)cc1` (configuration not stated) the response (percent of control binding) was inactive: 104%.
In the case of `Cc1cc(C)cc(OP(C)(N)=O)c1` (configuration not stated), the response (percent of control binding) is reported as inactive: 101%.
`COc1ccc(OP(C)(=O)Nc2cccc(F)c2)cc1` (configuration not stated) was tested, and the response (percent of control binding) was inactive: 98.4%.
In the case of `COc1ccccc1OP(C)(=O)Nc1cc(Cl)ccc1C` (configuration not stated), the response (percent of control binding) is reported as inactive: 102%.
`Cc1cc(C)cc(OP(C)(=O)Nc2cccc(C(F)(F)F)c2)c1` (configuration not stated) was tested, and the response (percent of control binding) was inactive: 103%.
`COc1ccccc1OP(C)(=O)Nc1ccc(C)c(C)c1` (configuration not stated) was tested, and the response (percent of control binding) was inactive: 100%.
`COc1ccc(OP(C)(=O)Nc2ccccc2Br)cc1` (configuration not stated) was tested, and the response (percent of control binding) was inactive: 97.9%.
For `Cc1nc2ccc3ccccc3c2o1.O=[N+]([O-])c1cc([N+](=O)[O-])c(O)c([N+](=O)[O-])c1`, the response (percent of control binding) was inactive: 99.7%.
For `CP(=O)(Nc1ccc(Cl)cc1Cl)Oc1ccccc1` (configuration not stated), the response (percent of control binding) was inactive: 94.2%.
With `CP(=O)(OCCOc1ccccc1)OCCOc1ccccc1` the response (percent of control binding) was inactive: 99.5%.
With `COc1ccccc1OP(C)(=O)Nc1ccc(Br)cc1` (configuration not stated) the response (percent of control binding) was inactive: 97.3%.
With `COc1ccc(OP(C)(=O)Nc2ccccn2)cc1` (configuration not stated) the response (percent of control binding) was inactive: 113%.
In the case of `CN(C)CCOC(=O)C(O)(c1ccccc1)C1CCCC1` (configuration not stated), the response (percent of control binding) is reported as inactive: 103%.
In the case of `Cc1c(NP(C)(=O)Oc2ccc(C(C)C)cc2)c(=O)n(-c2ccccc2)n1C` (configuration not stated), the response (percent of control binding) is reported as inactive: 98.7%.
With `O=[N+]([O-])c1cc([N+](=O)[O-])c(Nc2ccccn2)c([N+](=O)[O-])c1` the response (percent of control binding) was inactive: 106%.
`COc1ccccc1OP(C)(=O)Nc1ccc(C)cc1C` (configuration not stated) was tested, and the response (percent of control binding) was inactive: 102%.
For `CP(=O)(Nc1ccccn1)Oc1ccccc1` (configuration not stated), the response (percent of control binding) was inactive: 104%.
In the case of `CCc1ccc(OP(C)(=O)O)cc1`, the response (percent of control binding) is reported as inactive: 96.8%.
`COc1ccc(OP(C)(=O)Nc2ccc(Br)cc2)cc1` (configuration not stated) was tested, and the response (percent of control binding) was inactive: 81.2%.
`CCN(CC)CC(O)COC(=O)C(O)(c1ccccc1)C1CCCCC1` (configuration not stated) was tested, and the response (percent of control binding) was inactive: 102%.
`O=C(OCCCN1CCCC1)C(O)(c1ccccc1)C1CCCCC1` (configuration not stated) was tested, and the response (percent of control binding) was inactive: 98.3%.
In the case of `CCc1ccc(OP(C)(=O)Nc2cccnc2)cc1` (configuration not stated), the response (percent of control binding) is reported as inactive: 97.5%.
In the case of `CP(=O)(Oc1ccccc1)N1CCOC1=O` (configuration not stated), the response (percent of control binding) is reported as inactive: 101%.
For `COc1ccccc1OP(C)(=O)Nc1ccccc1Br` (configuration not stated), the response (percent of control binding) was inactive: 103%.
`CC(C)(C)c1ccc(OP(C)(=O)O)cc1` was tested, and the response (percent of control binding) was inactive: 94.7%.
For `CP(=O)(Nc1ccc(Cl)cc1)Oc1ccc(F)cc1` (configuration not stated), the response (percent of control binding) was inactive: 103%.
For `CN(C)C(=O)c1c([N+](=O)[O-])cc([N+](=O)[O-])cc1[N+](=O)[O-]`, the response (percent of control binding) was inactive: 96%.
For `CCOC(=O)c1ccc(NP(C)(=O)Oc2ccc(Cl)cc2)cc1` (configuration not stated), the response (percent of control binding) was inactive: 93.9%.
For `CP(=O)(OC12CC3CC(CC(C3)C1)C2)OC12CC3CC(CC(C3)C1)C2`, the response (percent of control binding) was inactive: 102%.
For `COc1ccc(OP(C)(=O)Nc2cccc(Br)c2)cc1` (configuration not stated), the response (percent of control binding) was inactive: 96.8%.
For `CN(C)CCOC(=O)C(O)(c1ccccc1)C1CCCCC1` (configuration not stated), the response (percent of control binding) was inactive: 102%.
For `COc1ccc(NP(C)(=O)Oc2ccccc2OC)cc1` (configuration not stated), the response (percent of control binding) was inactive: 106%.
In the case of `O=[N+]([O-])c1ccc(OP2(=O)COCCO2)cc1` (configuration not stated), the response (percent of control binding) is reported as inactive: 98.1%.
`O=[N+]([O-])c1cc([N+](=O)[O-])c(NCC2CCS(=O)(=O)C2)c([N+](=O)[O-])c1` (configuration not stated) was tested, and the response (percent of control binding) was inactive: 99.8%.
In the case of `Cc1cc(-c2cccc3ccccc23)c(C)cn1.O=[N+]([O-])c1cc([N+](=O)[O-])c(O)c([N+](=O)[O-])c1`, the response (percent of control binding) is reported as inactive: 101%.
For `CP(=O)(Nc1ccc(SC(F)(F)F)cc1)Oc1ccc(F)cc1` (configuration not stated), the response (percent of control binding) was inactive: 102%.
`CCOP(C)(=S)SCC(=O)NC(C)(CC)C(=O)O` (configuration not stated) was tested, and the response (percent of control binding) was inactive: 104%.
For `CP(=O)(Nc1ccc2c(c1)OCCO2)Oc1ccccc1` (configuration not stated), the response (percent of control binding) was inactive: 90.3%.
With `Cc1ccccc1NP(C)(=O)Nc1ccccc1C` the response (percent of control binding) was inactive: 101%.
In the case of `CP(=O)(Nc1ccccc1F)Oc1ccccc1` (configuration not stated), the response (percent of control binding) is reported as inactive: 89.3%.
In the case of `CC(C)c1ccc(OP(C)(=O)Nc2ccc(SC(F)(F)F)cc2)cc1` (configuration not stated), the response (percent of control binding) is reported as inactive: 99.6%.
For `O=C(OC1CN2CCC1CC2)c1ccc([N+](=O)[O-])cc1` (configuration not stated), the response (percent of control binding) was inactive: 101%.
For `O=C(OCCN1CCN(CCOCc2ccccc2)CC1)C(O)(c1ccccc1)c1ccccc1`, the response (percent of control binding) was inactive: 99.8%.
In the case of `COc1ccc2c(c1O)-c1c(O)c(OC)cc3c1[C@H](C2)[N+](C)(C)CC3.O=[N+]([O-])c1cc([N+](=O)[O-])c([O-])c([N+](=O)[O-])c1[O-]`, the response (percent of control binding) is reported as inactive: 95.5%.
With `CCOC(=O)c1ccc(NP(C)(=O)Oc2ccc(F)cc2)cc1` (configuration not stated) the response (percent of control binding) was inactive: 98.2%.
In the case of `COc1ccc(OP(C)(=O)Nc2ccc(SC(F)(F)F)cc2)cc1` (configuration not stated), the response (percent of control binding) is reported as inactive: 101%.
For `CP(=O)(Nc1ccccc1)Oc1ccc(F)cc1` (configuration not stated), the response (percent of control binding) was inactive: 101%.
`CCCCCOc1ccc(NP(C)(=O)Oc2ccc(Cl)cc2Cl)cc1` (configuration not stated) was tested, and the response (percent of control binding) was inactive: 98.9%.
